According to patent EP4825869A1, “CHEMOKINE RECEPTOR 8 ANTAGONISTIC POLYPEPTIDE COMPOUND, COMPOSITION, KIT, AND USE” (dated 2026):
Like-named read-outs stand apart in the source and are kept apart here.

Chains of the proteins cited; added tags and fusions are not shown.
UniProt P51685, whole entry: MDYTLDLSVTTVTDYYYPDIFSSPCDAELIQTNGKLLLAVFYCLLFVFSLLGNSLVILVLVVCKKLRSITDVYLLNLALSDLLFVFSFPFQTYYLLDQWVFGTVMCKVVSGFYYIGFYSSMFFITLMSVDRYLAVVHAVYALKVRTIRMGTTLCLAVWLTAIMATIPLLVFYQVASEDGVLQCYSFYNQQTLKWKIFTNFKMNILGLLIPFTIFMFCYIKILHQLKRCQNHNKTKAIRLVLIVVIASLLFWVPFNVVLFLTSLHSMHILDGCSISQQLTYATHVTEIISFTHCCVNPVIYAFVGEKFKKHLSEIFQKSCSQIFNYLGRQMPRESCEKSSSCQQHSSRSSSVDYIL

What was measured:
[1] = test system: Calcipotriol-Induced Mouse Atopic Dermatitis Model; assay: Drug efficacy screening (preliminary screening), drug applied before MC903; conditions: topical, qd, 14 days, after the last administration; for pathological section of mouse dorsal skin: back 50 µL; for pathological section of mouse ear: ear 20 µL
Protocol: (§1) In the following Experimental Examples 1-2, SPR was used to determine the binding ability of polypeptide compounds to the CCR8 receptor, and the transwell chemotaxis assay was used to evaluate whether polypeptide compounds could inhibit cell migration by blocking the CCL1-CCR8 axis. In the following Experimental Examples 3-5, female Balb/c mice weighing 18-22 g were used; and a solution of 50mM MC903 (calcipotriol) in 75% ethanol was used as a modeling agent. MC903, i.e., calcipotriol, is a low-calcium analog of vitamin D3 widely used for treating psoriasis. Topical application of MC903 can stimulate epithelial keratinocytes in mice to highly express TSLP, promote differentiation of CD4+ T cells into Th2 cells, and activate and release inflammatory cytokines, causing mice to develop an atopic dermatitis phenotype.
After shaving the dorsal skin of mice, MC903 was applied once a day (50 µL was applied on dorsal skin with the area of 2cm*2cm, and 20 µL was applied on ear) to induce atopic dermatitis in mice. This Experimental Example was used to test the efficacy of the CCR8 antagonistic polypeptides in the present disclosure for preventing atopic dermatitis.
Vehicle for test compounds (TCR10 and TCR09): Normal saline.
Positive control drugs: 0.3 wt% mometasone gel (glucocorticoid) and KMC420 (JAK inhibitor, 10 mM; vehicle: normal saline).
Mice in the normal control group were only treated with 75% ethanol solution for 14 days without MC903-induced modeling. Mice in the model group were only applied with MC903 every day for 14 consecutive days. During the administration, mice in the positive control drug group and test compound (TCR9 and TCR10) groups were first applied with the positive control drug (application amounts for mometasone gel and KMC420 both were 50 µL on back, and 20 µL on ear (10 µL on each of the inner and outer sides)) or test compound (TCR10 and TCR09, both applied at a concentration of 20 mg/mL with 50 µL on back, and both applied at a concentration of 50 mg/mL with 10 µL on each of the inner and outer sides of the ear) every day. After drying thoroughly, the modeling agent was applied (50 µL was applied on dorsal skin, and 20 µL was applied on ear (10 µL on each of the inner and outer sides) each time), once a day for 14 consecutive days. Table 4 Compound Test Protocol for Drug efficacy Screening Test
Before modeling with MC903, the body weight, remaining food amount, and ear thickness of mice in each group were measured, and then, before daily administration, the body weight, remaining food amount, and ear thickness of mice in each group were measured. Photographs were taken and skin lesions were scored regularly on the ear and dorsal skin. […]

[2] = test system: interstitial dendritic cells; assay: Transwell chemotaxis assay, migration of PBMC-derived interstitial dendritic cells
From the text: PBMC-derived interstitial dendritic cells were induced to differentiate, and the migration number of interstitial dendritic cells in the presence or absence of polypeptide compounds was counted using the Transwell chemotaxis assay. This Experimental Example was used to evaluate whether polypeptide compounds block the migration of interstitial dendritic cell through the CCL1-CCR8 axis.
Vehicle for test compound (TCR10): PBS solution + RPMI 1640.
Antibody control: Anti-CCR8 antibody (purchased from Genomeditech, GM-30913AB); Vehicle: RPMI 1640.
CD14^+ monocytes were sorted from human PBMCs using magnetic beads and cultured in the presence of GM-CSF and IL-4 for 6 days to obtain interstitial dendritic cells. Expressions of CD209, CD1α, and CCR8 were detected by flow cytometry. The differentiated interstitial dendritic cells were collected and added to the upper chamber of the transwell. Samples were distributed to the upper and lower chambers of each chamber according to Table 3,wherein in the blank control group (abbreviated as "blank group"), only cells were added; in the positive control group, CCL1 and CXCL12 were added; in the test compound group, test compound plus CCL1 and CXCL12 were added; in the antibody control group, anti-CCR8 antibody plus CCL1 and CXCL12 were added; each group was tested in duplicate. […] Cells that migrated through the chamber were counted using a microscope. […]

[3] = test system: atopic dermatitis in mice; assay: Dose-effect test, drug applied before MC903; conditions: topical, qd, 14 days; for dorsal skin lesions of mice: 3mg group (60 mg/mL 50 µL on back, 150 mg/mL 20 µL on ear), compared with the model group
Protocol: as §1
After shaving the dorsal skin of mice, MC903 was applied once a day (50 µL was applied on dorsal skin with the area of 2cm*2cm, and 10 µL was applied on each of the inner and outer sides of ear) to induce atopic dermatitis in mice. For mice in the administration groups (including positive control drug group and test compound group), drugs were pre-applied before each application of MC903 to test the preventive effect of drugs on atopic dermatitis.
Test compound solution: DMSO was used to dissolve the drug to a suitable concentration as a stock solution (stock solution for back: 200 mg/mL; stock solution for ear: 500 mg/mL). Then working solutions were prepared according to the following formula (by volume) and stored at 4°C: (1) 10% DMSO stock solution + 40% PEG300 + 5% Tween 80 + 45% NS (normal saline), resulting in final working solution having drug concentrations of: 20 mg/mL of working solution for back; 50 mg/mL of working solution for ear; (2) 30% DMSO stock solution + 40% PEG300 + 5% Tween 80 + 25% NS (normal saline), resulting in final working solution having drug concentrations of: 60 mg/mL of working solution for back; 150 mg/mL of working solution for ear.
Positive control drugs: 0.1 wt% mometasone furoate and 2 wt% crisaborole ointment. […]

[4] = target: Human CCR8 full-length protein (VLP) (Homo sapiens, UniProt P51685); assay: In vitro SPR affinity assay of polypeptide compounds with CCR8 protein; conditions: for Ka: PBS with 0.05% Tween 20, association time 120 seconds
Protocol: Human CCR8 full-length protein (VLP) chips were prepared by amino coupling method. CCR8 full-length protein (VLP) was immobilized on two channels of a CM5 chip. This Experimental Example tested the strength of affinity of polypeptide compounds with CCR8 protein, to confirm their binding ability to the CCR8 receptor.
Vehicle for test compounds (TCR10 and TCR09): PBS solution (containing 0.05% Tween 20).
The polypeptide compounds were formulated into 1 mM solutions as drug stock solutions, and then serially diluted with the PBS solution into working solutions with concentrations of 2.56×10^-2 nM, 0.128 nM, 0.64 nM, 3.2 nM, 16 nM, 80 nM, 400 nM, 2 µM, and 10 µM, using the PBS solution as a blank control at the same time. The working solutions of the above concentrations were captured on the Fc3 and Fc4 channels of the CCR8(VLP)-CM5 chip using the PBS solution. The polypeptide compound samples to be tested at various concentrations and the blank control flowed through the test channels (Fc3 and Fc4) respectively, at a flow rate of 30 µL/min, with an association time of 120 seconds and a dissociation time of 120 seconds. After each test, the chip was regenerated with Gly-HCl buffer of pH 1.5.

[5] = CCR8(VLP)-CM5 chip, PBS with 0.05% Tween 20
[6] = CCR8(VLP)-CM5 chip, PBS with 0.05% Tween 20, dissociation time 120 seconds
[7] = read-out: affinities binding to human CCR8 protein

Row | Kd [4, 5] [nM] | Ka ([4]; CCR8(VLP)-CM5 chip) [M⁻¹ s⁻¹] | Kd [4, 6] [s⁻¹] | Kd [4, 7] [nM] | Substance | pathological section of mouse dorsal skin [1] | pathological section of mouse ear [1] | decrease in cell migration amount ([2]; 0.5 µg/mL, compared with anti-CCR8 antibody) | migration amount of interstitial dendritic cells (iDCs) ([2]; final concentration 0.5 µg/mL in upper chamber, CCL1 500 ng/mL and CXCL12 1 ng/mL in lower chamber, 5 hours, versus positive control group) | dorsal skin lesions of mice [3] | improvement effect on dorsal skin lesions, comparison among groups ([3]; 3mg group)
1 | 17.2 | 155000 | 0.002662 | 17.2 | H2N-AIB-Arg-Pro-Asp-Lys-Ala-Ala-Leu-Gly-Tyr-Gln-Lys-Arg-Pro-Leu-Pro-Gln-Val-Leu-Leu-Ser-Ser-Ile-CONH2 | widespread epidermis thickening (black arrow) could be observed in the tissue, and scattered lymphocyte and neutrophil infiltration could be observed in the dermis | no obvious abnormalities | more significant | decreased | significantly improve | best improvement effect
2 | 229 | 3326 | 0.0007608 | 229 | H2N-AIB-Arg-Pro-Asp-Lys-Ala-Ala-Leu-Gly-Tyr-Gln-Lys-Arg-Pro-Leu-Pro-Gln-Val-Leu-Leu-Ser-Ser-Val-CONH2 | rare parakeratosis in the stratum corneum (black arrow) and moderate thickening of the epidermis (yellow arrow), and scattered lymphocyte and neutrophil infiltration could be observed in the epidermis and dermis | widespread mild thickening of the epidermis with more pronounced local thickening (black arrow) in the tissue, and mild connective tissue hyperplasia locally in the epidermis (yellow arrow) could be observed, accompanied by lymphocyte and neutrophil infiltration |  |  | significantly improve | 
